From article PMC6377692 (EJNMMI Research, 2019)

By UniProt entry, the sequences of proteins in these tests, tags left out. Residues count along the entry.
UniProt P30082, 27-485: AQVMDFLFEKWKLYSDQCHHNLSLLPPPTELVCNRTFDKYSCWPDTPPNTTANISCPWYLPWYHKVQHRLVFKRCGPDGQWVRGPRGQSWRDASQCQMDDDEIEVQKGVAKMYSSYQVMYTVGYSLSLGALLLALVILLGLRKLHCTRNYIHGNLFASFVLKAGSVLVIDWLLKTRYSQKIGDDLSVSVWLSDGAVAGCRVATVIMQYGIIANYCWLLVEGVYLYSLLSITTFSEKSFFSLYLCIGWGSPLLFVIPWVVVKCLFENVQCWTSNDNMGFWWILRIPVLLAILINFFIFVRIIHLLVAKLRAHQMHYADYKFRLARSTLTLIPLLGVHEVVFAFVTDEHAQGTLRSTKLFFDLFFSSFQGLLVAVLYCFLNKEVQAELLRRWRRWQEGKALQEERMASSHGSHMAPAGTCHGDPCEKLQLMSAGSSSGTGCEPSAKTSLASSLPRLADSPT
UniProt F8V479, 24-463: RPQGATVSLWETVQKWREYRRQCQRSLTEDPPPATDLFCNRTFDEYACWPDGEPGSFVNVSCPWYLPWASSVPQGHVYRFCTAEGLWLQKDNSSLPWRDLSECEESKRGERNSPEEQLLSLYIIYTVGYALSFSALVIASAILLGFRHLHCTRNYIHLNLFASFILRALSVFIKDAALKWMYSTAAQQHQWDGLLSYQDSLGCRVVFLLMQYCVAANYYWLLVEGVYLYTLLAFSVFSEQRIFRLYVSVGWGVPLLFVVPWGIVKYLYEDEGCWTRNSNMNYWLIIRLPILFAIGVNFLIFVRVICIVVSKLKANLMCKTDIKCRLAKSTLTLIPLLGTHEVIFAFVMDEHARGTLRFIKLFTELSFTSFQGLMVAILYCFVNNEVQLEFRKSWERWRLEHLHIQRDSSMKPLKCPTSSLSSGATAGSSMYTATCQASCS

What was measured:
[1] = rat in vivo competition with precursor peptide; parameters: species or system Sprague Dawley rats; conditions: male, Sprague Dawley, total radioactivity, tracer alone, 40 min (S01) or 60 min (S02) p.i., S02 baseline stated for liver and spleen, read-out: baseline binding in the liver
Experimental: A competition study with each respective radiotracer precursor peptide was performed to investigate in vivo selectivity in selected tissues (the blood, heart, lung, liver, pancreas, spleen, kidney, muscle, and bone marrow).
Animals in each group (n = 4 for each radioligand) were co-injected with 1 mg/kg of either unlabelled DO3A-S01-GCG or -DO3A-S02-GCG peptide to determine the fraction of binding in each tissue which was receptor mediated.
The time point of euthanasia for each radiotracer was determined based on liver-to-blood ratio obtained from the biodistribution study above, as well as the radionuclide half-life and known radiotracer precursor half-life in blood plasma. Tissue resection and analysis of radioactive uptake in each tissue (expressed as SUV) were performed and analyzed as described above.

[2] = target: T1, GCGR in rat liver sections (Rattus norvegicus, UniProt P30082); test: in vitro autoradiography, liver sections; type: binding, Sprague Dawley rat
T1 construct: from tissue; host or cells: frozen Sprague Dawley rat liver sections
Experimental: Liver and pancreas tissues were collected post-mortem from cynomolgus monkeys (NHP) and Sprague Dawley rats. The use of animal tissues collected post-mortem was approved by the Animal Research Ethical Committee of the Uppsala Region and was performed according to the Uppsala university guidelines on animal experimentation (UFV 2007/724).
Sections were added in duplicates in each individual assay, and each experiment was repeated at least three times with different batches of radioligand, except for rat sections that were only performed in one assay.
After incubation, the sections were washed three times in 150 mL PBS. Sections were carefully dried at 37 °C and then exposed against a digital phosphorimager plate overnight together with a 10-μl droplet of radioactive reference (cross-calibrated against a gamma counter) on an absorbent paper attached to an object glass. The phosphor imager plates were scanned using a Cyclone Plus Phosphor imager (Perkin Elmer) at 600 dpi, and the resulting autoradiograms analyzed by ImageJ software (NIH, Bethesda). Pixel values in counts/mm^2 were converted to Bq/mm^2 by the included reference. Bq/mm^2 was further converted to fmol/mm^2 by the known specific radioactivity (fmol/Bq) of each batch of radiopharmaceutical.

[3] = data not shown
[4] = rat in vivo distribution (ex vivo organ counting); parameters: species or system Sprague Dawley rats; conditions: male, Sprague Dawley, liver, iv, 1.3 ug/kg, total radioactivity, i.v., read-out: retention in the liver
Experimental: The in vivo distribution over time was performed to identify the optimal time point for an in vivo blocking study and to calculate the residence time for dosimetry (see detail below). Thus, measurement at more time points was prioritized over repetitions at individual time points.
The animals were kept at a constant temperature (25 °C) and humidity (50%) in a 12-h light-dark cycle. Food and water were provided ad libitum.
Each radiotracer was administered into the tail vein of conscious animals as a bolus in 0.5–0.6 mL of PBS (pH 7.4) as vehicle. […] Given the constraints of the specific radioactivity for each radioligand, the dosing was designed to minimize the given peptide mass (in order to stay below mass effect levels) while still yielding enough radioactive signal for well counter measurements.
At pre-determined post injection time points (5, 10, 20, 40, 60, 90, 120, and 180 min), two animals per each point were euthanized by CO2. Tissues were immediately extracted and weighed, and the radioactive content was measured in the well counter. […] The well counter readings were decay corrected to the time of injection and the mass of the extracted tissues and expressed as Bq/cc. […]

cynomolgus monkey GLP1R = target: T2, cynomolgus monkey GLP1R (Macaca fascicularis, UniProt F8V479); test: functional cAMP assay in transfected HEK293 cells; type: cell-based
T2 construct: expressed in transfected cells; host or cells: HEK293
Experimental: (§1) The same assay was performed for GLP-1R to assess cross-binding. Details of the assay procedure are described in Additional file 1 and have also been described elsewhere.
(§2) cAMP content of cells was determined using a kit from Cisbio Corp. (cat. no. 62AM4PEJ) based on HTRF (Homogenous Time Resolved Fluorescence). For preparation, cells were split into T175 culture flasks and grown overnight to near confluency in medium (DMEM / 10% FBS). Medium was then removed and cells washed with PBS lacking calcium and magnesium, followed by proteinase treatment with accutase (Sigma-Aldrich cat. no. A6964). Detached cells were washed and resuspended in assay buffer (1 x HBSS; 20 mM HEPES, 0.1% BSA, 2 mM IBMX) and cellular density determined. They were then diluted to 400000 cells/ml and 25 µl-aliquots dispensed into the wells of 96-well plates. For measurement, 25 µl of test compound in assay buffer was added to the wells, followed by incubation for 30 minutes at room temperature. After addition of HTRF reagents diluted in lysis buffer (kit components), the plates were incubated for 1 hr, followed by measurement of the fluorescence ratio at 665 / 616 nm.

rat GLP1R = target: T3, rat GLP1R (Rattus norvegicus, UniProt P32301); test: functional cAMP assay in transfected HEK293 cells; type: cell-based
T3 construct: expressed in transfected cells; host or cells: HEK293
T3 sequence (P32301 22-463): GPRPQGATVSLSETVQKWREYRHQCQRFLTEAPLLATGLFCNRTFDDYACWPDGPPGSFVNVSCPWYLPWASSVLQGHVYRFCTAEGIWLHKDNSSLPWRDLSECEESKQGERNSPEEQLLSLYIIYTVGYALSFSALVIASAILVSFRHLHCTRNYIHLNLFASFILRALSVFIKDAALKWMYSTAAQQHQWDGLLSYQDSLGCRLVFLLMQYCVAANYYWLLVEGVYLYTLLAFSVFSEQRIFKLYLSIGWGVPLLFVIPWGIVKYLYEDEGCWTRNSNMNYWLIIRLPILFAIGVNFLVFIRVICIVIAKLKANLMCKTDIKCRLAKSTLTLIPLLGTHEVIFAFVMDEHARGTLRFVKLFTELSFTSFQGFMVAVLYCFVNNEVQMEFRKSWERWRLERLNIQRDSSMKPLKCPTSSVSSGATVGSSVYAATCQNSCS
Experimental: as §1
as §2, with “temperature.” for “temperature. After addition of HTRF reagents diluted in lysis buffer (kit components), the plates were incubated for 1 hr, followed by measurement of the fluorescence ratio at 665 / 616 nm.”

rat GCGR = target: T4, rat GCGR (Rattus norvegicus, UniProt P30082); test: functional cAMP assay in transfected HEK293 cells; type: cell-based
T4 construct: host or cells: HEK293
Experimental: as §1
as §2, with “temperature.” for “temperature. After addition of HTRF reagents diluted in lysis buffer (kit components), the plates were incubated for 1 hr, followed by measurement of the fluorescence ratio at 665 / 616 nm.”

Which SUV [1] does the source give for `CC[C@H](C)[C@H](NC(=O)[C@H](Cc1ccccc1)NC(=O)[C@H](CCC(=O)O)NC(=O)[C@H](CCC(N)=O)NC(=O)[C@H](C)NC(=O)[C@H](CCCNC(=N)N)NC(=O)[C@H](CCCNC(=N)N)NC(=O)[C@H](CO)NC(=O)[C@H](CCC(=O)O)NC(=O)[C@H](CC(C)C)NC(=O)[C@H](CCC(N)=O)NC(=O)[C@H](CCCCN)NC(=O)[C@H](CO)NC(=O)[C@H](Cc1ccc(O)cc1)NC(=O)[C@H](CC(=O)O)NC(=O)[C@H](CO)NC(=O)[C@@H](NC(=O)[C@H](Cc1ccccc1)NC(=O)[C@@H](NC(=O)CNC(=O)[C@H](CCC(N)=O)NC(=O)[C@H](CO)NC(=O)[C@@H](N)Cc1cscn1)[C@@H](C)O)[C@@H](C)O)C(=O)N[C@@H](CCC(=O)O)C(=O)N[C@@H](Cc1c[nH]c2ccccc12)C(=O)N[C@@H](CC(C)C)C(=O)N[C@@H](CC(C)C)C(=O)N[C@@H](C)C(=O)NCC(=O)NCC(=O)N1CCC[C@H]1C(=O)N[C@@H](CCC(=O)O)C(=O)N[C@@H](CO)C(=O)NCC(=O)N[C@@H](C)C(=O)N1CCC[C@H]1C(=O)N1CCC[C@H]1C(=O)N1CCC[C@H]1C(=O)N[C@@H](CO)C(=O)N[C@@H](CSCCS(=O)(=O)CCN1CCN(CC(=O)O)CCN(CC(=O)O)CCN(CC(=O)O)CC1)C(N)=O` [[^68Ga]Ga-DO3A-S02-GCG, metal not drawn] here?
Its SUV is 0.5 SUV.

And the inhibition at 10 µM ([2]; 10 μM precursor, n = 1, read-out: inhibition of tracer binding to liver sections by co-incubation with own precursor peptide)?
Its inhibition at 10 µM is over 50%.

And the “inhibition of tracer binding to liver sections by co-incubation with GCG” value ([2]; 5–10 nM tracer, 10 μM GCG, 60 min RT, n = 1)?
The value was over 50%.

And the exposure [3]?
The exposure was 325 ng·h/mL.

And the “plasma t½” value [3]?
Its value is 7.2 min.

And the SUV [4]?
The SUV was under 1 SUV.

Which EC50 (cynomolgus monkey GLP1R) does the source give for `CC[C@H](C)[C@H](NC(=O)[C@H](Cc1ccccc1)NC(=O)[C@H](CCC(=O)O)NC(=O)[C@H](CCC(N)=O)NC(=O)[C@H](C)NC(=O)[C@H](CCCNC(=N)N)NC(=O)[C@H](CCCNC(=N)N)NC(=O)[C@H](CO)NC(=O)[C@H](CCC(=O)O)NC(=O)[C@H](CC(C)C)NC(=O)[C@H](CCC(N)=O)NC(=O)[C@H](CCCCN)NC(=O)[C@H](CO)NC(=O)[C@H](Cc1ccc(O)cc1)NC(=O)[C@H](CC(=O)O)NC(=O)[C@H](CO)NC(=O)[C@@H](NC(=O)[C@H](Cc1ccccc1)NC(=O)[C@@H](NC(=O)CNC(=O)[C@H](CCC(N)=O)NC(=O)[C@H](CO)NC(=O)[C@@H](N)Cc1cscn1)[C@@H](C)O)[C@@H](C)O)C(=O)N[C@@H](CCC(=O)O)C(=O)N[C@@H](Cc1c[nH]c2ccccc12)C(=O)N[C@@H](CC(C)C)C(=O)N[C@@H](CC(C)C)C(=O)N[C@@H](C)C(=O)NCC(=O)NCC(=O)N1CCC[C@H]1C(=O)N[C@@H](CCC(=O)O)C(=O)N[C@@H](CO)C(=O)NCC(=O)N[C@@H](C)C(=O)N1CCC[C@H]1C(=O)N1CCC[C@H]1C(=O)N1CCC[C@H]1C(=O)N[C@@H](CO)C(=O)N[C@@H](CSCCS(=O)(=O)CCN1CCN(CC(=O)O)CCN(CC(=O)O)CCN(CC(=O)O)CC1)C(N)=O` [DO3A-S02-GCG] here?
Its EC50 is 1.98 nM.

What about the EC50 (rat GLP1R) of the same molecule?
Its EC50 is 3.96 nM.

What about the EC50 (rat GCGR) of the same molecule?
Its EC50 is 0.0476 nM.
